This is an account of results in patent US8778872B2 (priority 2010, dated 2014).

The chains behind the UniProt entries cited, without tags or fusion partners. Residues count along the entry.
UniProt P43220, 24-463, species assumed: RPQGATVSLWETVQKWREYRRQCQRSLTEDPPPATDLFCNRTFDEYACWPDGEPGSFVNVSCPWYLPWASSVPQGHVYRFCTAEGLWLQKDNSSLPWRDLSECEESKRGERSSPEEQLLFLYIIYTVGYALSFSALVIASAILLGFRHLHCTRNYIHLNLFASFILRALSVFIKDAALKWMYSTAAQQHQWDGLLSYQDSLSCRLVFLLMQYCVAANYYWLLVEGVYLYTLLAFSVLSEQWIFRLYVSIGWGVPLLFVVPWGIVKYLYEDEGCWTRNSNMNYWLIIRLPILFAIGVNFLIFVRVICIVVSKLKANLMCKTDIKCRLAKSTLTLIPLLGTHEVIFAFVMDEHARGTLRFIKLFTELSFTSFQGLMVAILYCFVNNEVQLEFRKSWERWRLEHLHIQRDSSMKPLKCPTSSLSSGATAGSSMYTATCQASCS

For this data set, the target named is GLP-1 receptor (Homo sapiens, UniProt P43220). The data set can be described thus: Luciferase-based reporter gene assay for cAMP detection, HEK293 cells co-transfected with GLP-1 receptor (prodrug samples pre-incubated in PBS or plasma). The conditions noted are these: plasma. (In a reporter assay the amount or activity of a reporter protein is the signal.)

By half-life is commonly meant how long it takes for the measured level to halve.

`CC[C@H](C)[C@H](NC(=O)[C@H](Cc1ccccc1)NC(=O)[C@H](CCC(=O)O)NC(=O)[C@H](CCCCN)NC(=O)[C@H](C)NC(=O)[C@H](C)NC(=O)[C@H](CCC(N)=O)NC(=O)CNC(=O)[C@H](CCC(=O)O)NC(=O)[C@H](CC(C)C)NC(=O)[C@H](Cc1ccc(O)cc1)NC(=O)[C@H](CO)NC(=O)[C@H](CO)NC(=O)[C@@H](NC(=O)[C@H](CC(=O)O)NC(=O)[C@H](CO)NC(=O)[C@@H](NC(=O)[C@H](Cc1ccccc1)NC(=O)[C@@H](NC(=O)CNC(=O)[C@H](CCC(=O)O)NC(=O)[C@H](C)NC(=O)[C@H](Cc1c[nH]cn1)NC(=O)CN(C)C(=O)[C@H](N)CCCCN)[C@@H](C)O)[C@@H](C)O)C(C)C)C(=O)N[C@@H](CS)C(=O)N[C@@H](Cc1c[nH]c2ccccc12)C(=O)N[C@@H](CC(C)C)C(=O)N[C@H](C(=O)N[C@@H](CCCCN)C(=O)NCC(=O)N[C@@H](CCCNC(=N)N)C(N)=O)C(C)C` [dLys^−1-Sar^0,C^24GLP(7-36)]: the half-life is about 10 h.
